Experimental data: patent US20060194835A1, “Compositions and methods for treating or preventing flaviviridae infections” (priority 2005, published 2006)

Tested on: BVDV strain NADL
Assay: Inhibition of viral release from BVDV-infected MDBK cells (plaque titer)
Conditions: MOI = 1

## NC(=O)c1ncn([C@@H]2O[C@H](CO)[C@@H](O)[C@H]2O)n1 [Ribavirin, ribavirin, reference compound]
  TI (Therapeutic Index, CC50/EC50): ˜166
